For 1 compound, Ratio IC50 results are on record in ChEMBL document CHEMBL5252638, “Novel triphenylphosphonium amphiphilic conjugates of glycerolipid type: synthesis, cytotoxic and antibacterial activity, and targeted cancer cell delivery” (RSC Med Chem, 2023).

Test [1] is filed under the species Homo sapiens. Description: Selectivity index, ratio of IC50 for human Chang liver cells to IC50 for human PC-3 cells.
The species named for test [2] is Homo sapiens. Description: Selectivity index, ratio of IC50 for human Chang liver cells to IC50 for human SK-OV-3 cells.

As for `O=c1[nH]cc(F)c(=O)[nH]1` [FLUOROURACIL], the Ratio IC50 came out at 1.9 in the test filed under Homo sapiens [1] and 1.3 in the test listed under Homo sapiens [2].
